Experimental data taken from publication PMC11966747, “Next Generation Risk Assessment of Acute Neurotoxicity from Organophosphate Exposures Using the In Vitro–In Silico Derived Dietary Comparator Ratio” (Environmental Science & Technology, 2025).
Where two headings read alike, the source gives them in different places.

By UniProt entry, the sequences of proteins in these tests, tags left out. Residues count along the entry.
UniProt P22303, 32-617 isoform P22303-2 limits assumed: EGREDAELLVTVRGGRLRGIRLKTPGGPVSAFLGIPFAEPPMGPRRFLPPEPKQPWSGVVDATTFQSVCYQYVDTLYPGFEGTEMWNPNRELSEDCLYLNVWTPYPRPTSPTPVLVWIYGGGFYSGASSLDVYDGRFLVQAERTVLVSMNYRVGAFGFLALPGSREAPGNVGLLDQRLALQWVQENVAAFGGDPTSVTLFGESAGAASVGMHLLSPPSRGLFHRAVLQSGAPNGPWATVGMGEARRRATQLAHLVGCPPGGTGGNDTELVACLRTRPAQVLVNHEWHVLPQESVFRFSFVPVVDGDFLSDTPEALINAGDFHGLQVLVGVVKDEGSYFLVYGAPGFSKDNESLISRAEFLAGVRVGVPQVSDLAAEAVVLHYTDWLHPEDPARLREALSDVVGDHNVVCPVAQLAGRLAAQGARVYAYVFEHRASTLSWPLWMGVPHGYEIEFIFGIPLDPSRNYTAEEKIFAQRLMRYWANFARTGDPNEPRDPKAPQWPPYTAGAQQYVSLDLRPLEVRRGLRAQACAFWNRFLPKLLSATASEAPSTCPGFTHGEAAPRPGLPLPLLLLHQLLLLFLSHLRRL

Key:
[1] = molecular target: T1, erythrocyte AChE (Homo sapiens, UniProt P22303); experiment: Exposure Activity Ratio (EAR) and Dietary Comparator Ratio (DCR) calculation; parameters: from tissue; host or cells: human whole peripheral blood (erythrocytes), K2EDTA anticoagulant
Procedure: The DCR value for an exposure scenario was calculated as the ratio of EARtest and EARcomparator (eq 1). The EARtest is scenario-specific and was defined with the IC50 of the tested organophosphate oxon for in vitro erythrocyte AChE inhibition and the PBK model-simulated CBmaxoxon at the defined exposure level (eq 2).
The DCR-based predictions were evaluated by comparing the obtained DCR results with actual knowledge of the adverse health effects reported for the respective exposure scenarios. Adverse effects cannot be ruled out for human exposure scenarios with a DCR result greater than 1, while exposure scenarios with a DCR result less than or equal to 1 are considered to raise no safety concern.[18]−[20] Once validated as an adequate predicting tool, the DCR approach was applied for evaluating the safety of exposure scenarios, for which no information on the resulting toxic outcomes was reported at the defined dose levels for humans.

[2] = molecular target: T1, erythrocyte AChE; settings: cited from earlier work
[3] = single oral 286 mg/kg BW, ref Table S2, 286 mg/kg

| SMILES | calculated DCR value ([1]; single oral 286 mg/kg BW) | calculated EARtest value ([1]; single oral 286 mg/kg BW) | reported or expected adverse health outcome [2, 3] | reported or expected adverse health outcome ([2]; single oral 286 mg/kg BW, ref Table S2, listed as Chlorpyrifos, 286 mg/kg) | calculated DCR value ([1]; single oral 714 mg/kg BW) | calculated EARtest value ([1]; single oral 714 mg/kg BW) | reported or expected adverse health outcome ([2]; single oral 286 mg/kg BW, ref Table S2, listed as Fenitrothion, 286 mg/kg) | reported or expected adverse health outcome ([2]; single oral 714 mg/kg BW, ref Table S2, 714 mg/kg) | reported or expected adverse health outcome ([2]; single oral 714 mg/kg BW, ref Table S2, listed as Fenitrothion, 714 mg/kg) |
| --- | --- | --- | --- | --- | --- | --- | --- | --- | --- |
| CCOP(=S)(OCC)Oc1nc(Cl)c(Cl)cc1Cl [chlorpyrifos] | 40 | 1.57 | positive | Yes |  |  |  |  |  |
| COP(=S)(OC)Oc1ccc([N+](=O)[O-])c(C)c1 [fenitrothion] | 1005 | 39.69 | positive |  | 1949 | 76.95 | Yes | positive | Yes |
